# Measurements: article PMC5073051 (European journal of medicinal chemistry, 2016)
# Legend:
# MDA-MB-231 cells [1] = assay: HGF-induced cell proliferation MTT assay, MDA-MB-231; settings: Homo sapiens, MDA-MB-231, 72 h, read-out: Antiproliferative activity IC50 ± SEM, MDA-MB-231, MTT, HGF 40 ng/mL, 72 h, 2D monolayer
# MDA-MB-231 cells [2] = assay: HGF-induced cell migration wound-healing assay; settings: Homo sapiens, MDA-MB-231, 24 h, read-out: Antimigratory activity IC50 ± SEM, MDA-MB-231, wound-healing assay, HGF 40 ng/mL, 24 h
structure (smiles),measurement,setting,value
"C/C=C(/C=O)[C@@H](CC=O)CC(=O)OCCc1ccc(O)cc1 [Compound 1, (-)-Oleocanthal, reference compound]",IC50,MDA-MB-231 cells [1],15 ± 1.4 µM
same,IC50,MDA-MB-231 cells [2],7.5 ± 1.1 µM
